{"source": "patent US20080008773A1", "about": "“Food beverage or feed for the promotion of osteogenesis comprising umbelliferae, liliaceae or compositae plant species” (priority 2002, published 2008)", "tested_on": "C3H10T1/2", "test": "Induction of differentiation of C3H10T1/2 cells into osteoblasts by water extract and recombinant human BMP-2 (synergistic effects)", "assay_type": "cell-based, Mouse", "details": "for Alkaline Phosphatase Activity (%): 11 days", "method": "(1) Mouse interstitial cell strain ST-2 was suspended in DMEM medium (manufactured by Bio Whittaker) containing 10% fetal bovine serum (manufactured by Bio Whittaker) so as to have a concentration of 3×10^4 cells/ml. The suspension was put to a 96-well plate in an amount of 0.1 ml per well, and the cells were cultured sterilely. After the cells were cultured for 2 days, the medium was exchanged with a fresh medium. The compound a derived from root portions of Angelica keiskei koidz. obtained in Example 1 was added thereto as a sample, and the cells were cultured for 3 days. Subsequently, differentiation of ST-2 cells into osteoblasts was measured using alkaline phosphatase as an index. The cells were washed once with PBS, 100 μl of a reaction substrate solution (100 mM diethanolamine buffer, pH 10.0, 2 mM magnesium chloride, 1 mM p-nitrophenyl phosphate) was added thereto, and the reaction was carried out at 37° C. for 30 minutes. Next, the reaction was terminated with adding 100 μl of 0.2 N sodium hydroxide, and the amount of p-nitrophenol which was released was determined by determining absorbance at 405 nm. The activity for induction of differentiation into osteoblasts was shown by setting a group without addition of the sample as a control, and defining alkaline phosphatase activity of the control as 100%. The experiments were carried out twice, and the average was taken.\nMouse embryonal cell strain C3H10T1/2 was suspended in DMEM medium containing 10% fetal bovine serum so as to have a concentration of 3×10^4 cells/ml. The suspension was put to a 96-well plate in an amount of 0.1 ml per well, and the cells were cultured sterilely. […] Subsequently, differentiation into osteoblasts was measured using alkaline phosphatase as an index in the same manner as in Example 2.\nMouse embryonal cell strain C3H10T1/2 was suspended in DMEM medium containing 10% fetal bovine serum so as to have a concentration of 3×10^4 cells/ml. […] Subsequently, differentiation into osteoblasts was measured using alkaline phosphatase activity as an index in the same manner as in Example 5."}
{"substance": "Recombinant Human BMP-2: recombinant human BMP-2 (manufactured by GT)", "values": [{"measurement": "Alkaline Phosphatase Activity (%)", "setting": "recombinant human BMP-2 500 ng/ml alone (water extract 0%)", "result": 379.6, "unit": "%"}, {"measurement": "Alkaline Phosphatase Activity (%)", "setting": "recombinant human BMP-2 1000 ng/ml alone (water extract 0%)", "result": 687.1, "unit": "%"}, {"measurement": "Induction of differentiation into osteoblasts (in words)", "setting": "recombinant human BMP-2 alone", "result": "induces differentiation into osteoblasts in a concentration-dependent manner"}]}
